Reference: ChEMBL document CHEMBL3351726, “Studies examining the relationship between the chemical structure of protoxin II and its activity on voltage gated sodium channels” (J Med Chem, 2014)
pIC50: −log10 of the molar value.

By UniProt entry, the sequences of proteins in these tests, tags left out.
UniProt Q15858, whole entry: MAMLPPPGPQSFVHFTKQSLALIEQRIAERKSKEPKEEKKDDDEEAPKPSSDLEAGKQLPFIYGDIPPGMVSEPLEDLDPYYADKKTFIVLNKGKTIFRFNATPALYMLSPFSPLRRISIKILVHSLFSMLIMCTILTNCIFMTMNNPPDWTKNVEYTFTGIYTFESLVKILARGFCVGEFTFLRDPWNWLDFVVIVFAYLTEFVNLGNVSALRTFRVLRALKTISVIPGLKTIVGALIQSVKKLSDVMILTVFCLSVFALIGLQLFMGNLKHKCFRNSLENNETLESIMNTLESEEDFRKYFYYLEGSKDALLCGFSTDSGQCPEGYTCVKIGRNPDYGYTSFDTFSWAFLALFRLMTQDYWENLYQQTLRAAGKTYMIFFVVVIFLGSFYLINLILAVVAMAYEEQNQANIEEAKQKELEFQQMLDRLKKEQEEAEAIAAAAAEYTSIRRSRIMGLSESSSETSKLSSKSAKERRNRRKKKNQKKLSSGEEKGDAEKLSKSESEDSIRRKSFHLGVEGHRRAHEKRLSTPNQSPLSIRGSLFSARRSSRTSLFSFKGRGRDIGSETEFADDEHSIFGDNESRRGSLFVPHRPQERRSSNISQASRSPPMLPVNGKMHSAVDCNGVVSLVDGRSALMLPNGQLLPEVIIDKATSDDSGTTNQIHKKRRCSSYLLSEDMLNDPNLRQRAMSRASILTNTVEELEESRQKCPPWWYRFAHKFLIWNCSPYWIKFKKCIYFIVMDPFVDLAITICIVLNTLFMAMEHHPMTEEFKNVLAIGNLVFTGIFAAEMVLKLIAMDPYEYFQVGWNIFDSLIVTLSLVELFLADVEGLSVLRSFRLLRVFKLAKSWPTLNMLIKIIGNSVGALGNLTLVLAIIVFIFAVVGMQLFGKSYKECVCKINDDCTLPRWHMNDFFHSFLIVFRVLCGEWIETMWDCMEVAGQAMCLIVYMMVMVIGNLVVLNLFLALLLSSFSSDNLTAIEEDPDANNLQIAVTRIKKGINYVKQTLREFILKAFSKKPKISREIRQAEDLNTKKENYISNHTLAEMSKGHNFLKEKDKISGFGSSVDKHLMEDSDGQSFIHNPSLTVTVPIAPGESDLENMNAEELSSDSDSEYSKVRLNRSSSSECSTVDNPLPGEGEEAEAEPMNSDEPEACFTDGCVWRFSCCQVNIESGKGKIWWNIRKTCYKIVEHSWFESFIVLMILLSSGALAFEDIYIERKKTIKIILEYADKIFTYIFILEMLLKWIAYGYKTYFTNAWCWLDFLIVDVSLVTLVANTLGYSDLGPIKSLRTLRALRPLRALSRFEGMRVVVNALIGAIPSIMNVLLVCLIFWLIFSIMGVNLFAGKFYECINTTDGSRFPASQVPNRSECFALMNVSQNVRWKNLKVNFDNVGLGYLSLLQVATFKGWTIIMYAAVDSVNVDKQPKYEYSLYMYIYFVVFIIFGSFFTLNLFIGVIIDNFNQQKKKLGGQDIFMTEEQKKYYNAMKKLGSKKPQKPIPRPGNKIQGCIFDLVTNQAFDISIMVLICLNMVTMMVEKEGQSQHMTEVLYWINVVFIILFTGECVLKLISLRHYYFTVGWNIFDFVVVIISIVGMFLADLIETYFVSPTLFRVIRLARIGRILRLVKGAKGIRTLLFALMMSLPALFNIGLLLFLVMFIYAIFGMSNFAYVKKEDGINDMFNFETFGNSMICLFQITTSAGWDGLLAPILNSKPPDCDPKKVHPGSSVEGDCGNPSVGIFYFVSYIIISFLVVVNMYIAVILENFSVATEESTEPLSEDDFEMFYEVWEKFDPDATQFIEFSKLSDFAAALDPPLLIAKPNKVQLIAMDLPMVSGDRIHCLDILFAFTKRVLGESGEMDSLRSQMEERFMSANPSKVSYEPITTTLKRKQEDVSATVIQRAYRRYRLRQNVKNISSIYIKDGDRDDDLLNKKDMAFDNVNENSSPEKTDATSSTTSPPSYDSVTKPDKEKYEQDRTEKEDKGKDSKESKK

Target: Sodium channel protein type 9 subunit alpha (Homo sapiens, UniProt Q15858)
Assay: Inhibition of human Nav1.7 expressed in HEK-293 cells at -130 to -110 mV holding potential by whole-cell voltage clamp analysis
Assay type: cell-based, HEK293

CSCC[C@@H]1NC(=O)CNC(=O)[C@H](CCC(=O)O)NC(=O)[C@@H]2CSSC[C@H](NC(=O)[C@@H](N)Cc3ccc(O)cc3)C(=O)N[C@@H](CCC(N)=O)C(=O)N[C@@H](CCCCN)C(=O)N[C@@H](Cc3c[nH]c4ccccc34)C(=O)N[C@@H](CCSC)C(=O)N[C@@H](Cc3c[nH]c4ccccc34)C(=O)N[C@@H]([C@@H](C)O)C(=O)N[C@H]3CSSC[C@H](NC(=O)[C@H](C(C)C)NC1=O)C(=O)N[C@@H](CCCNC(=N)N)C(=O)N[C@@H](CC(C)C)C(=O)N[C@@H](Cc1c[nH]c4ccccc14)C(=O)N[C@H](C(=O)N[C@@H](CCCCN)C(=O)N[C@@H](CCCCN)C(=O)N[C@@H](CCCCN)C(=O)N[C@@H](CC(C)C)C(=O)N[C@@H](Cc1c[nH]c4ccccc14)C(N)=O)CSSC[C@H](NC(=O)[C@H](CCCCN)NC(=O)[C@H](CCCNC(=N)N)NC(=O)[C@H](CCC(=O)O)NC(=O)[C@H](CO)NC(=O)[C@H](CC(=O)O)NC3=O)C(=O)N2
pIC50: 9.64
